Reference: article PMC7048932, “Examining sterically demanding lysine analogs for histone lysine methyltransferase catalysis” (Scientific Reports, 2020)

Amino acid sequences for entries named in this document (tags omitted). A change or cut given only in a name is not applied to a line headed by its entry.
UniProt Q9NQR1: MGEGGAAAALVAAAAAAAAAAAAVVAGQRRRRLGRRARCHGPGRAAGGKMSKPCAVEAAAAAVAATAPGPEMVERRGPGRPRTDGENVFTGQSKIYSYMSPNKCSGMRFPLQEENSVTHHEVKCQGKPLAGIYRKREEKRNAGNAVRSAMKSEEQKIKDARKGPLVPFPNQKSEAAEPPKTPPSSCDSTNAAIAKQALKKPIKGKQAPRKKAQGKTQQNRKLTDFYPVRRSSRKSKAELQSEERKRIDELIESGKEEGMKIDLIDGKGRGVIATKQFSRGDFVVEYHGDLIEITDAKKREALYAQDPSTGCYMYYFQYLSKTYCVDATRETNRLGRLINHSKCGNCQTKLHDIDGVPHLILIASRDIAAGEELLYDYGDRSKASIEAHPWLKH

Biological target: SETD8 (human) (UniProt Q9NQR1)

degree of monomethylation by SETD8 with SAM in competition with an equimolar amount of H4KCP20 (MALDI-TOF MS): 70%
Substance: H4K20 histone peptide
